Molecules are shown by their SMILES. This is a selection; strong and weak results do not stand in their true shares. Calls of active or inactive are those of the source.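 How the source made its calls: active means activation factor of at least 2 at 20 µM, relative to controls; inactive means the rest.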

Protein sequences, listed by entry. Tags and fused reporters are not part of them. Lines headed by an entry give the natural chain unless they say otherwise; changes in a name come on top.
UniProt P05186: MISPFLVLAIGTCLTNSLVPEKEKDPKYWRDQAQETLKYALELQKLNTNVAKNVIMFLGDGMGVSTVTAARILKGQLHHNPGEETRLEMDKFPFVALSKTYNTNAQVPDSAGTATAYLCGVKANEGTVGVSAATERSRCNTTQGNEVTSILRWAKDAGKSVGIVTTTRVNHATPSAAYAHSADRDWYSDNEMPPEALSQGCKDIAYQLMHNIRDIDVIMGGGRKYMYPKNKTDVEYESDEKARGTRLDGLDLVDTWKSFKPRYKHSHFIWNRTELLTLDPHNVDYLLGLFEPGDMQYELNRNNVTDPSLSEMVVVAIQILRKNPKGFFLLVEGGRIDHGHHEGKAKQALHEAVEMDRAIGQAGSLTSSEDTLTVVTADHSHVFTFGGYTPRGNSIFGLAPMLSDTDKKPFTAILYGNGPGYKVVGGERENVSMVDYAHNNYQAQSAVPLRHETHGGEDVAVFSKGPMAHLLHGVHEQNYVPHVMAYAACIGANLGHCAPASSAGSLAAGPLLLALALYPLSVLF

The assay has as its target Alkaline phosphatase, tissue-nonspecific isozyme (Homo sapiens) (UniProt P05186). As to the kind of experiment: stimulation of alkaline phosphatase TNAP activity – biochemical, luminescent, intermediate phosphate acceptor level, primary screen (AID 813). Particulars: purified TNAP, CDP-star luminescence, 100 mM DEA, 30 min; at 20 µM; hits give high values; scale: 0 levamisole-inhibited, 1 vehicle-only enzyme.
Take `O=C(OC1CN2CCC1CC2)C12CC3CC(CC(C3)C1)C2` (configuration not stated): the activation factor was inactive: 1. `O=P1(Nc2ncccn2)COc2ccccc2OC1`: the activation factor was inactive: 1.

Consider `Clc1n[nH]nc1-c1nn[nH][15n]1`, for which the activation factor is inactive: 1. The value for `CCOP1(=S)c2c(C)nn(CCC#N)c2N=C(c2ccc(F)cc2)N1C` (configuration not stated) was inactive: 1; that for `COC(=O)c1cc2c(s1)N=C(c1ccccc1)N(C)P2(=O)N1CCOCC1` (configuration not stated) was inactive: 1. For the compound `O=P(Nc1nccs1)(c1ccccc1)c1ccccc1`, the activation factor was inactive: 0.8. As for `Cc1c2non([O-])c-2c(C)[n+](=O)[n+]1[O-]`, the figure is inactive: 1.

Source of the values: PubChem BioAssay AID813 (Sanford-Burnham Center for Chemical Genomics, 2007).
